Experimental data: patent US9284284B2, “Oxazine derivatives and their use in the treatment of disease” (NOVARTIS AG, priority 2011, dated 2016)

Amino acid sequences for entries named in this document (tags omitted). Residues count along the entry.
UniProt Q9Y5Z0, 63-473: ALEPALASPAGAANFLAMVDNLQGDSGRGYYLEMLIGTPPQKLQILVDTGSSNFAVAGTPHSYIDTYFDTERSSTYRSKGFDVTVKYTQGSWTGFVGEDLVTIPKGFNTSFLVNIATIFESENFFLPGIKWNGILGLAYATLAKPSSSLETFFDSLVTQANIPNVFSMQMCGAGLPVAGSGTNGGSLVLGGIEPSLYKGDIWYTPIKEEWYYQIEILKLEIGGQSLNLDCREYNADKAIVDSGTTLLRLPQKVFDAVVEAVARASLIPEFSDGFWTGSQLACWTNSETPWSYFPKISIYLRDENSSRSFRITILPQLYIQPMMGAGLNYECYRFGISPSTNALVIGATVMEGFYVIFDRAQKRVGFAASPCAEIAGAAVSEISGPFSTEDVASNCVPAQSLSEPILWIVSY
UniProt P56817, 46-457: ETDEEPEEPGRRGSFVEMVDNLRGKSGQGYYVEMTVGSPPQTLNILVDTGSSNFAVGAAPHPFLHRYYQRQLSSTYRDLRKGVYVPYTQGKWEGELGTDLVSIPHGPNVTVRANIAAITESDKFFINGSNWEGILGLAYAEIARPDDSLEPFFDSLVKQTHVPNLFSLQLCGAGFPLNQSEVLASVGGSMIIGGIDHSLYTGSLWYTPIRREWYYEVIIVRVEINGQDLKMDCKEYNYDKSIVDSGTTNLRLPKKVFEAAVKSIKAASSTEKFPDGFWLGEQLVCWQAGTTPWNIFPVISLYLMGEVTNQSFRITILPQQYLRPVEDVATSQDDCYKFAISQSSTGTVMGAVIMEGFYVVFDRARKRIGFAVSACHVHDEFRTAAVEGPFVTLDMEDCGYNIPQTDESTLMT

Assays:
[1] = tested on: amyloid peptide 1-40 release; assay: Test 4: Inhibition of Cellular Release of Amyloid Peptide 1-40; format: cell-based, Chinese hamster; conditions: Cricetulus griseus, 24 h, read-out: Amyloid-β1-40 release IC50
Protocol: Chinese hamster ovary cells are transfected with the human gene for amyloid precursor protein. The cells are plated at a density of 8000 cells/well into 96-well microtiter plates and cultivated for 24 hours in DMEM cell culture medium containing 10% FCS. The test compound is added to the cells at various concentrations, and the cells are cultivated for 24 hours in the presence of the test compound. […] The potency of the compound is calculated from the percentage of inhibition of amyloid peptide release as a function of the test compound concentration.

human BACE-2 = human BACE-2 (Homo sapiens (Human), UniProt Q9Y5Z0); assay: Test 2: Inhibition of Human BACE-2; format: biochemical
Protocol: Test 2: Inhibition of Human BACE-2
(§1) Recombinant BACE-2 (extracellular domain, expressed in baculovirus and purified using standard methods) at 0.1 to 1 nM concentrations is incubated with the test compound at various concentrations for 1 hour at room temperature in 100 mM acetate buffer, pH 4.5, containing 0.1% CHAPS. Activity was measured using a final concentration of 3 μM of the fluorescence-quenched substrate Q-C(HSO3)-Ile-Asp-Leu-Ala-Val-Leu-Asp-HN—CH2—CH2-Mca, where Q=2-nitro-5-amino benzoic acid and Mca=7-methoxy-4-coumarinyl acetic acid. Catalytic turnover was monitored in a Spectramax Gemini fluorescence plate reader (Molecular Devices) in black 96-well microplates using excitation/emission wavelength of 325 nm and 400 nm, respectively. Fluorescence increase was followed for 15 min, in 1 minute's intervals. The fluorescence/time slopes were calculated from duplicate wells and from wells without inhibitor and the IC50 values were calculated using a logistic 4-parameter model.

human BACE-1 = human BACE-1 (Homo sapiens (Human), UniProt P56817); assay: Test 1: Inhibition of Human BACE-1; format: biochemical
Protocol: Test 1: Inhibition of Human BACE-1
as §1, with “BACE-1” for “BACE-2”

**Q.** `COc1ccccc1Nc1ccc(F)c([C@]2(C)CO[C@@](C)(C(F)(F)F)C(N)=N2)n1` [Example 29, (2R,5R)-5-[3-Fluoro-6-(2-methoxy-phenylamino)-pyridin-2-yl]-2,5-dimethyl-2-trifluoromethyl-5,6-dihydro-2H-[1,4]oxazin-3-ylamine] was tested. Which IC50 [1] did it give?
**A.** 2.3 µM

**Q.** What about the IC50 (human BACE-2) of the same molecule?
**A.** 4.2 µM

**Q.** And the IC50 (human BACE-1)?
**A.** > 10 µM
